# AlphaSeq binding of Ab-14 light chain variants to a spike HR2 peptide

From the AlphaSeq antibody data of Engelhart et al. 2022 (doi:10.1038/s41597-022-01779-4), copy in the FLAb collection.

The target is the same throughout: PDVDLGDISGINAS, from the HR2 region of SARS-CoV-2 spike.

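Phage display of a naive human antibody library on the peptide gave the parent. Variants in AAYL50 differ from the parent at up to three CDR positions; double and triple changes were sampled at random. The assay is AlphaSeq: two haploid yeast populations carry antibody and antigen on their surface. Mating (16 h, 30 °C) was followed by selection of diploids and sequencing of their barcodes. Scores were corrected for input abundance and mapped to Kd with protein pairs of known affinity run in the same pool. Mating was done three times.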

The variants keep the heavy chain, the linker and the frameworks of Ab-14 (scFv order VH, a (GGGGS)3 linker, VL).
VH: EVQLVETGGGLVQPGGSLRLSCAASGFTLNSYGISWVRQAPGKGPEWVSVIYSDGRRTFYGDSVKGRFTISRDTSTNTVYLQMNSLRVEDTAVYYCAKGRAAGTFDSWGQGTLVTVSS
VL: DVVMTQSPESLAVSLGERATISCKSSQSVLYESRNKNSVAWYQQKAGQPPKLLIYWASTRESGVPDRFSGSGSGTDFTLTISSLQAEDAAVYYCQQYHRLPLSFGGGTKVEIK

The parent's light chain CDRs are KSSQSVLYESRNKNSVA, WASTRES, QQYHRLPLS; each variant's own CDRs replace them letter for letter.
Every variant below is changed at S28 of the VL (sequential numbering).
Each Kd is an estimate from the mating assay, the geometric mean of the replicates in which the pair was seen; lower is stronger.
"nd" means that the variant was in the library but no mating with the target was seen in any replicate; the authors take this as a sign of poor binding, and no number exists.

- KSSQKVLYESRNMNSVA / WAITRES / QQYHRLPLS -> 380 nM (1 of 3 replicates)
- KSVQIVLYESRNKNSVA / WASTRES / QQYWRLPLS -> 3.0 µM (1 of 3 replicates)
- KSSQTVLYESRNKNSVA / WASTIES / QQYHRLQLS -> nd (0 of 3 replicates)
- KSSQMVLYESRNKNSVA / WASTRES / QMYHALPLS -> 280 nM (3 of 3 replicates)
- KSSQEVLYESMNKRSVA / WASTRES / QQYHRLPLS -> 18 nM (3 of 3 replicates)
- FSSQNVLYESRNKNSVA / WASTRES / QQYHRLPLS -> 22 nM (3 of 3 replicates)
- KSSQLVLYESRNKNSVA / WASTRES / QYYHRLPKS -> nd (0 of 3 replicates)
- KSSQCVLYESRNKNTVA / WPSTRES / QQYHRLPLS -> nd (0 of 3 replicates)
- KSYQVVLYESRNKNSVA / WASTRKS / QQYHRLPLS -> nd (0 of 3 replicates)
- KSSQLVLYESRNKNSVA / WASIRES / QQYHRLPAS -> nd (0 of 3 replicates)
- KSSQMVLYESRNKNQRA / WASTRES / QQYHRLPLS -> 6.1 µM (1 of 3 replicates)
- KSSTKVLYESRNKNSVA / DASTRES / QQYHRLPLS -> 590 pM (3 of 3 replicates)
- KSSQIVLYESNNKNSVA / WASTRES / QQYHRLPKS -> 84 nM (3 of 3 replicates)
- KSSQHVLYESRNKNSVA / WFSTRES / QQVHRLPLS -> nd (0 of 3 replicates)
- KSSQEVLYESRNKNSCA / WASTRES / IQYHRLPLS -> 360 nM (1 of 3 replicates)

The first 2 entries again:

{"CDR-L1": "KSSQKVLYESRNMNSVA", "CDR-L2": "WAITRES", "CDR-L3": "QQYHRLPLS", "apparent Kd": "380 nM", "replicates with signal": "1 of 3"}
{"CDR-L1": "KSVQIVLYESRNKNSVA", "CDR-L2": "WASTRES", "CDR-L3": "QQYWRLPLS", "apparent Kd": "3.0 µM", "replicates with signal": "1 of 3"}

Empty control strains, which show no peptide, gave a signal in 18% of pairings with library AAYL50; the median was 15 µM and 95% of these signals were weaker than 970 nM. No background was subtracted.